# Yeast mating assay 1: variants of the scFv Ab-14

From the AlphaSeq antibody data of Engelhart et al. 2022 (doi:10.1038/s41597-022-01779-4), copy in the FLAb collection.

Binding partner: SARS-CoV-2 spike HR2 peptide, sequence PDVDLGDISGINAS.

Each scFv is VH, a 15-residue (Gly4Ser)3 linker, VL, as in the parent Ab-14, and differs from it in the CDRs of the heavy chain only.
VH: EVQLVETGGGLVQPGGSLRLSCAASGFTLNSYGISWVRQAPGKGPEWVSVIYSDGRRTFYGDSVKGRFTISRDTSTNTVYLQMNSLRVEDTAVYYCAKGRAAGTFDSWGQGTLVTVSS
VL: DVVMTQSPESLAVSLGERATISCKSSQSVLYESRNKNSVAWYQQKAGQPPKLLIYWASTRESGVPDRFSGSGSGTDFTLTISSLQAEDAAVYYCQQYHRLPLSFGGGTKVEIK

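The parent was found by panning a naive human phage display library on the peptide. Library AAYL49 holds single substitutions and randomly drawn double and triple substitutions in the CDRs. AlphaSeq pools MATa yeast showing the antibodies with MATalpha yeast showing the peptide. After mating in shaken culture at 30 °C for 16 h, diploids were selected and their barcode pairs sequenced. Each replicate has its own calibration line, from reference interactions of the BCL2 family. Each pool was mated in three replicate cultures.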

Variants are written as CDR1, CDR2 and CDR3 of the heavy chain (limits as in the source). Parent: GFTLNSYGIS, VIYSDGRRTFYGDSVK, GRAAGTFDS.
Numbers give log10(Kd / nM), so 0 is 1 nM and 3 is 1 µM. Smaller is tighter.
Averages over replicates are reported, and they cover detected replicates only.
Where no diploid with the target was found in that replicate, the entry reads "ND": below detection, most likely a poor binder, though not proof of it.
Empty control strains, which show no peptide, gave a signal in 15% of pairings with library AAYL49; the median was 4.06 and 95% of these signals were weaker than 2.83. No background was subtracted. The control count says in how many pairings with the empty strains this scFv gave a signal, with their mean in brackets.

{"CDR-H1": "GFTLNSYGIS", "CDR-H2": "VIYSDGRRFFYGLSDK", "CDR-H3": "GRAAGTFDS", "log10 Kd, replicates": "ND ND ND", "log10 Kd (nM), mean": "ND", "control signals": "0 of 9"}
{"CDR-H1": "GFTVNSYGIS", "CDR-H2": "VIYSDGRRTFYPDSHK", "CDR-H3": "GRAAGTFDS", "log10 Kd, replicates": "ND ND ND", "log10 Kd (nM), mean": "ND", "control signals": "0 of 9"}
{"CDR-H1": "EFTLNSGGIS", "CDR-H2": "VIYSDGRRTFYGDSYK", "CDR-H3": "GRAAGTFDS", "log10 Kd, replicates": "ND ND ND", "log10 Kd (nM), mean": "ND", "control signals": "5 of 9 (4.65)"}
{"CDR-H1": "GFTDNSYLIS", "CDR-H2": "VLYSDGRRTFYGDSVK", "CDR-H3": "GRAAGTFDS", "log10 Kd, replicates": "5.76 ND ND", "log10 Kd (nM), mean": "5.76", "control signals": "0 of 9"}
{"CDR-H1": "GETLNSYVIS", "CDR-H2": "VIYSDGRRTFYGDSVK", "CDR-H3": "GRAAGAFDS", "log10 Kd, replicates": "ND ND ND", "log10 Kd (nM), mean": "ND", "control signals": "1 of 9 (3.95)"}
{"CDR-H1": "GFTLNSYGIS", "CDR-H2": "VIYSDGRTTFYGDSVK", "CDR-H3": "GQAAGTFFS", "log10 Kd, replicates": "ND ND ND", "log10 Kd (nM), mean": "ND", "control signals": "2 of 9 (3.91)"}
{"CDR-H1": "GFTLNSYGIS", "CDR-H2": "VIYSDGRRAHYGDSDK", "CDR-H3": "GRAAGTFDS", "log10 Kd, replicates": "ND ND ND", "log10 Kd (nM), mean": "ND", "control signals": "0 of 9"}
{"CDR-H1": "GFTLMSYGIS", "CDR-H2": "VIYSDGRRTFYGDSVK", "CDR-H3": "QRAAGTFRS", "log10 Kd, replicates": "ND ND ND", "log10 Kd (nM), mean": "ND", "control signals": "2 of 9 (4.50)"}
{"CDR-H1": "GFTLNSYGIS", "CDR-H2": "VIYSDGRRTFYEDSVW", "CDR-H3": "GRAAGQFDS", "log10 Kd, replicates": "2.07 1.84 2.11", "log10 Kd (nM), mean": "2.01", "control signals": "5 of 9 (4.28)"}
{"CDR-H1": "GFTENSYGIS", "CDR-H2": "PIYSDGRRFFYGDSVK", "CDR-H3": "GRAAGTFDS", "log10 Kd, replicates": "ND ND ND", "log10 Kd (nM), mean": "ND", "control signals": "0 of 9"}
{"CDR-H1": "GFPLNSYGIS", "CDR-H2": "NIQSDGRRTFYGDSVK", "CDR-H3": "GRAAGTFDS", "log10 Kd, replicates": "ND ND ND", "log10 Kd (nM), mean": "ND", "control signals": "2 of 9 (3.50)"}
{"CDR-H1": "GFTLNHYWRS", "CDR-H2": "VIYSDGRRTFYGDSVK", "CDR-H3": "GRAAGTFDS", "log10 Kd, replicates": "1.94 1.55 1.76", "log10 Kd (nM), mean": "1.75", "control signals": "2 of 9 (4.94)"}
{"CDR-H1": "GFTDNSYGIS", "CDR-H2": "VIYCDGRRTFYGDAVK", "CDR-H3": "GRAAGTFDS", "log10 Kd, replicates": "ND ND ND", "log10 Kd (nM), mean": "ND", "control signals": "0 of 9"}
{"CDR-H1": "GFTLNSYGIW", "CDR-H2": "VIYNDARRTFYGDSVK", "CDR-H3": "GRAAGTFDS", "log10 Kd, replicates": "ND ND 4.22", "log10 Kd (nM), mean": "4.22", "control signals": "0 of 9"}
{"CDR-H1": "GFTLNEYGIS", "CDR-H2": "VIYSDGRRTFYGDSVK", "CDR-H3": "GRLAGTFDL", "log10 Kd, replicates": "-0.22 0.16 -0.10", "log10 Kd (nM), mean": "-0.06", "control signals": "6 of 9 (4.58)"}
{"CDR-H1": "GFTLNSYGIS", "CDR-H2": "WIYSDGRITFYGDSVK", "CDR-H3": "GRAAGTFAS", "log10 Kd, replicates": "ND 2.92 ND", "log10 Kd (nM), mean": "2.92", "control signals": "0 of 9"}
{"CDR-H1": "GFTLNSYGIS", "CDR-H2": "VIYWDGDRTFMGDSVK", "CDR-H3": "GRAAGTFDS", "log10 Kd, replicates": "3.70 5.25 ND", "log10 Kd (nM), mean": "4.47", "control signals": "6 of 9 (4.47)"}
{"CDR-H1": "GFTLNSYGIS", "CDR-H2": "TIYSDERRTFYGDMVK", "CDR-H3": "GRAAGTFDS", "log10 Kd, replicates": "ND ND ND", "log10 Kd (nM), mean": "ND", "control signals": "2 of 9 (3.02)"}
{"CDR-H1": "GFNLNSFGES", "CDR-H2": "VIYSDGRRTFYGDSVK", "CDR-H3": "GRAAGTFDS", "log10 Kd, replicates": "4.29 ND ND", "log10 Kd (nM), mean": "4.29", "control signals": "2 of 9 (4.70)"}
{"CDR-H1": "GFNLNSYGIS", "CDR-H2": "VIYSDGRRTFYGDSVK", "CDR-H3": "GRKSGTFDS", "log10 Kd, replicates": "0.53 0.55 0.62", "log10 Kd (nM), mean": "0.56", "control signals": "1 of 9 (2.74)"}
{"CDR-H1": "GFTNNSYGIS", "CDR-H2": "QIYSDGRRTFYGDSVK", "CDR-H3": "GRAAGIFDS", "log10 Kd, replicates": "ND ND ND", "log10 Kd (nM), mean": "ND", "control signals": "3 of 9 (4.01)"}
{"CDR-H1": "GFTLFSYGIS", "CDR-H2": "VIYSDGRRDFYGDSVK", "CDR-H3": "ERAAGTFDS", "log10 Kd, replicates": "ND ND ND", "log10 Kd (nM), mean": "ND", "control signals": "1 of 9 (4.11)"}
{"CDR-H1": "GFTLNSYGIS", "CDR-H2": "VIYSDGRRTFYGDSVK", "CDR-H3": "GAANGTFDS", "log10 Kd, replicates": "ND ND ND", "log10 Kd (nM), mean": "ND", "control signals": "0 of 9"}
{"CDR-H1": "GFTLNPYGIS", "CDR-H2": "VIYSDGRRTFYGDSKK", "CDR-H3": "GRRAGTFDS", "log10 Kd, replicates": "ND ND ND", "log10 Kd (nM), mean": "ND", "control signals": "0 of 9"}
{"CDR-H1": "HFTLNSYGIV", "CDR-H2": "VIYSKGRRTFYGDSVK", "CDR-H3": "GRAAGTFDS", "log10 Kd, replicates": "ND 3.60 ND", "log10 Kd (nM), mean": "3.60", "control signals": "2 of 9 (4.28)"}
{"CDR-H1": "GFTANSYGII", "CDR-H2": "VIYSDGRRTFYGDSVK", "CDR-H3": "WRAAGTFDS", "log10 Kd, replicates": "ND ND ND", "log10 Kd (nM), mean": "ND", "control signals": "0 of 9"}

2 of these entries, quoted again:

CDR-H1,CDR-H2,CDR-H3,"log10 Kd, replicates","log10 Kd (nM), mean",control signals
GFTLNEYGIS,VIYSDGRRTFYGDSVK,GRLAGTFDL,-0.22 0.16 -0.10,-0.06,6 of 9 (4.58)
GFTANSYGII,VIYSDGRRTFYGDSVK,WRAAGTFDS,ND ND ND,ND,0 of 9